Laboratory results taken from BindingDB's records for PubMed 39708769 (Nanjing University of Chinese Medicine).

Protein sequences, listed by entry. Tags and fused reporters are not part of them.
UniProt Q07817, whole entry: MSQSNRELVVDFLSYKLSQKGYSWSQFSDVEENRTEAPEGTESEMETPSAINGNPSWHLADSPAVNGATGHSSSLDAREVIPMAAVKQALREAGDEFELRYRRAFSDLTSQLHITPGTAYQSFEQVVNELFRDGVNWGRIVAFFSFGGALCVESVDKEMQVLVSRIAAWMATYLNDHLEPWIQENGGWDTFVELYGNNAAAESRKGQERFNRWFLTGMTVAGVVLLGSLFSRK

Target: Bcl-2-like protein 1 (Homo sapiens, UniProt Q07817)

## Cc1cc2c(C(=O)NC[C@@H](C)c3ccccc3)c(O)c(O)cc2c(O)c1-c1c(C)cc2c(C(=O)NC[C@H](C)c3ccccc3)c(O)c(O)cc2c1O
  IC50: 310 nM
